Test results as given in PMC3788760.

Molecular target: full-length human protein disulfide isomerase (PDI) (human) (UniProt P07237)
Experiment: ITC; 25.0°C; VP-ITC; 200 µM Tau244–372 (or 40 µM full-length Tau) in the syringe injected into 8.1 µM PDI or fragment (or 3.24 µM PDI) in the cell; 10 mM HEPES pH 7.4, 100 mM NaCl, no DTT; single set of identical sites model

Substance: full-length human Tau (from UniProt P10636-8 1-441) (natural protein)
- Kd: 1.81 µM
- dH: -60.7 kJ/mol
- stoichiometry N: 1.12
